Read-outs that look alike come from different tables or passages of the source.
Key:
LmxCLK1 = molecular target: T1, LmxCLK1 (Leishmania mexicana, UniProt E9AMP2); assay: biochemical; type: binding
T1 sequence (E9AMP2 1-422): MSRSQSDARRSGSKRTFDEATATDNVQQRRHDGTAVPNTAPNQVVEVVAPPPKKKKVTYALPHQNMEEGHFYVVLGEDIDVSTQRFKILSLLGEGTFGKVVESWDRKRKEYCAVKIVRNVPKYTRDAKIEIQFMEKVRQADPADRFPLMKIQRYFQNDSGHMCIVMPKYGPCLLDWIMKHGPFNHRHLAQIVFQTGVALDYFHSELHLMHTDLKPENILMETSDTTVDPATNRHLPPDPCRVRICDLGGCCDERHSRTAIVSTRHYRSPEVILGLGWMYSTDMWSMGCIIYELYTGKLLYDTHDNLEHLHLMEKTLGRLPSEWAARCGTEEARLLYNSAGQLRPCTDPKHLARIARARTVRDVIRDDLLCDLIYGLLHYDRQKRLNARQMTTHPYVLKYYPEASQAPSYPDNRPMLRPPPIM

NLuc::LmxCLK1 = NLuc::LmxCLK1 (Leishmania mexicana, UniProt E9AMP2); assay: cell-based; conditions: read-out: Target occupancy Average
Description: All compounds were tested at a fixed concentration of 10 µM to enable direct comparison of their target occupancy in live cells.
Serially diluted probes (5 µL) were added to 85 µL of cells in culture media or 85 µL of purified protein. Final well volumes were adjusted to 100 µL with sterile Opti-MEM™ I Reduced Serum Medium (Thermo-Scientific) – for wells containing cells; or Kinase Buffer - for wells containing purified protein. For tracer displacement assays, samples were prepared as above, but final volume was brought to 100 µL by addition of vehicle or serially-diluted test compounds. Final DMSO concentration in these assays was 1%. […] Light emissions at 460+10 nm (BRET donor) and at 610+20 nm (BRET acceptor) were sequentially recorded (integration time = 0.5 s, gain = 3600) using a luminometer (BMG LABTECH Clariostar or Biotek Synergy HT). BRET values are reported in milli-BRET (mBRET) units (mBU), obtained by dividing the acceptor luminescence by the donor luminescence and multiplying the result by a factor of 1,000. BRET values were converted to blank-corrected probe occupancies (%) according to equation [1]: (1) Probeoccupancy(%)=X−Z/Y−Z×100 where X = mBRET value in the presence of the test compound and the probe, Y = mBRET value in the presence of probe only, and Z = mBRET value in the absence of probe and test compound. […]

Nc1ccc(C(=O)Nc2cccc(-c3nc(N4CCOCC4)c4oc5ncccc5c4n3)c2)cn1 [YM201636]
ΔTm Average (LmxCLK1; DSF, 10 µM compound, 2 µM LmxCLK1, mean of two runs): 0.2 °C

CN[C@@H]1C[C@H]2O[C@@](C)([C@@H]1OC)n1c3ccccc3c3c4c(c5c6ccccc6n2c5c31)C(=O)NC4 [Staurosporine]
receptor occupancy at 10 µM (NLuc::LmxCLK1): 25.4 ± 2% | ΔTm at 10 µM (LmxCLK1; read-out: ΔTm Average, DSF, 10 µM compound, 2 µM LmxCLK1, mean of two runs): 10.1 ± 0.2 °C | ΔTm at 10 µM (LmxCLK1; read-out: ΔTm Run 1, DSF, 10 µM compound, 2 µM LmxCLK1, Run 1): 10.3 °C | ΔTm at 10 µM (LmxCLK1; read-out: ΔTm Run 2, DSF, 10 µM compound, 2 µM LmxCLK1, Run 2): 10 °C
